# Antibody variant affinities, Ab-14 light chain, assay 1

The target is the same throughout: PDVDLGDISGINAS, from the HR2 region of SARS-CoV-2 spike.

Ab-14 is the parent antibody, in scFv form: VH, then a (GGGGS)3 linker, then VL. The heavy chain is unchanged in all variants.
VH: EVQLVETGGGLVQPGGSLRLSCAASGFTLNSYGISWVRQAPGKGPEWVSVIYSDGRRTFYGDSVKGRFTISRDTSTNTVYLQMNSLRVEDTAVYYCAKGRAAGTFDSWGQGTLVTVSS
VL: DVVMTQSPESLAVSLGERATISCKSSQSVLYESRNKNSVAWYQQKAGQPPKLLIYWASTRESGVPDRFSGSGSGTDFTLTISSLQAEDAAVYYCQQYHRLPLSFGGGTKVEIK

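The parent was found by panning a naive human phage display library on the peptide. Library AAYL50 holds single substitutions and randomly drawn double and triple substitutions in the CDRs. AlphaSeq pools MATa yeast showing the antibodies with MATalpha yeast showing the peptide. After mating in shaken culture at 30 °C for 16 h, diploids were selected and their barcode pairs sequenced. Read counts were normalised to the haploid input and turned into Kd by a linear fit to BCL2-family pairs of known affinity, for each replicate. Mating was done three times.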

Sequences are complete VL domains. Every variant below is changed at N37 of the VL (sequential numbering). Affinities are written as log10 Kd with Kd in nM; a lower number is a better binder. A mean of the replicates is given; it leaves out those without a signal. "nd" means that the variant was in the library but no mating with the target was seen in that replicate; the authors take this as a sign of poor binding, and no number exists.

The variant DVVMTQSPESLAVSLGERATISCKSSQSRLYESRNKKSVAWYQQKAGQPPKLLIYWASTRESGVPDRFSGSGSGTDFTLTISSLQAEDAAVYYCQQYHRLPLSFGGGTKVEIK gave 0.63, 1.06, 1.64 (mean 1.11; controls 2 of 9).
The variant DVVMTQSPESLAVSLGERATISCHSSQSLLYESRNKPSVAWYQQKAGQPPKLLIYWASTRESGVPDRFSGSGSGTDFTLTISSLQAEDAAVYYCQQYHRLPLSFGGGTKVEIK gave 3.79, 2.93, 3.10 (mean 3.28; controls 2 of 9).
The variant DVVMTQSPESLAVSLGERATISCKSSQSVLYESRNNMSVAWYQQKAGQPPKLLIYWASRRESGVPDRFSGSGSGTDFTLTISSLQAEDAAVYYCQQYHRLPLSFGGGTKVEIK gave 1.40, 1.50, 1.63 (mean 1.51; controls 3 of 9).
The variant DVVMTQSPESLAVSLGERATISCKSSQSVLYESLNKDSVAWYQQKAGQPPKLLIYWQSTRESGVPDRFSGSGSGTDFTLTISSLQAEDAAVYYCQQYHRLPLSFGGGTKVEIK gave nd, nd, nd (controls 0 of 9).
The variant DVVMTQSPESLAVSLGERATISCKSCQSVLYESRNKVSVAWYQQKAGQPPKLLIYWASTRESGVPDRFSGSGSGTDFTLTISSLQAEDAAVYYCQQYHALPLSFGGGTKVEIK gave nd, 2.89, nd (controls 0 of 9).
The variant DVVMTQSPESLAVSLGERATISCKSSQSVLYESRNLSSVAWYQQKAGQPPKLLIYWASTRESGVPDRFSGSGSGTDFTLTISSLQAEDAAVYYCPQYHRLPLSFGGGTKVEIK gave 2.03, 1.64, 1.42 (mean 1.70; controls 2 of 9).
The variant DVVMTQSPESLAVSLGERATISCKSSQSQLYESRNKMSVAWYQQKAGQPPKLLIYWASTRESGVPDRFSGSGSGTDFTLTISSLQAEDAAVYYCQQYHRLPLSFGGGTKVEIK gave nd, nd, nd (controls 0 of 9).
The variant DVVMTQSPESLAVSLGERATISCKSSQSVLYESRNKPSVAWYQQKAGQPPKLLIYLASTRSSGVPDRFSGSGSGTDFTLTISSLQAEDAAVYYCQQYHRLPLSFGGGTKVEIK gave 2.45, 2.21, 2.77 (mean 2.48; controls 2 of 9).
The variant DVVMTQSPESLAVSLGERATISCKSSQSVLYEVRNKISVAWYQQKAGQPPKLLIYWASTRESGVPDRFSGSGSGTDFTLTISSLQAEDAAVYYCQQYHRLPLDFGGGTKVEIK gave nd, nd, 4.83 (controls 3 of 9).
The variant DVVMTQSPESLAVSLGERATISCKSSQSVLYESRNQTSVAWYQQKAGQPPKLLIYWASTRESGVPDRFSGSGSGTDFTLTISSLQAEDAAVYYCQQVHRLPLSFGGGTKVEIK gave 1.71, 1.79, 1.65 (mean 1.72; controls 5 of 9).
The variant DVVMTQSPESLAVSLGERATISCKSSQSVLYESRNKMSVAWYQQKAGQPPKLLIYWASTRPSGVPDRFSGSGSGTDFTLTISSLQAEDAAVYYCQQDHRLPLSFGGGTKVEIK gave nd, nd, nd (controls 1 of 9).
The variant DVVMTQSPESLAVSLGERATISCKSSQSVAYESRNKMSVAWYQQKAGQPPKLLIYWASTRESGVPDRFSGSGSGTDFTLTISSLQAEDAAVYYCQQYHRLSLSFGGGTKVEIK gave 2.00, 1.70, 2.50 (mean 2.07; controls 1 of 9).
The variant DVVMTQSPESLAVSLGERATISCKSSQSVLYESRNKKSVAWYQQKAGQPPKLLIYYASTRESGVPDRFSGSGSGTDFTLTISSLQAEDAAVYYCQQYHRLELSFGGGTKVEIK gave nd, 3.65, nd (controls 0 of 9).
The variant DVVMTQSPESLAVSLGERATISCKSSQSVLYESRNKTSVAWYQQKAGQPPKLLIYWAGQRESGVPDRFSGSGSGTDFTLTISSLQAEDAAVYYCQQYHRLPLSFGGGTKVEIK gave 2.49, 3.43, 3.40 (mean 3.11; controls 5 of 9).
The variant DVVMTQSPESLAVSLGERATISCKSSQSVLYESAYKRSVAWYQQKAGQPPKLLIYWASTRESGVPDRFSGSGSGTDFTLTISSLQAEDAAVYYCQQYHRLPLSFGGGTKVEIK gave 2.34, 2.60, 2.99 (mean 2.64; controls 0 of 9).
The variant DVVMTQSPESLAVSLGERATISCKSSQNVLYESRNKGSVAWYQQKAGQPPKLLIYWASTRESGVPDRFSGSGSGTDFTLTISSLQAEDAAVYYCQQYHRLPYSFGGGTKVEIK gave 3.18, 2.75, 2.83 (mean 2.92; controls 1 of 9).
The variant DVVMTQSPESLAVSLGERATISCKSSWSVLYESRNKVSVAWYQQKAGQPPKLLIYWASTRESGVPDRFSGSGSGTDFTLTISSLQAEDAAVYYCYQYHRLPLSFGGGTKVEIK gave 2.93, 2.45, 3.87 (mean 3.08; controls 1 of 9).
The variant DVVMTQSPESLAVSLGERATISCKSSQSVLYESRNKFNGAWYQQKAGQPPKLLIYWASTRESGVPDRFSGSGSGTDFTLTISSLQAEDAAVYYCQQYHRLPLSFGGGTKVEIK gave nd, 4.13, nd (controls 0 of 9).
The variant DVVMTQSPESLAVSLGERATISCKSSQSVLYESRNCSSVAWYQQKAGQPPKLLIYWASTRISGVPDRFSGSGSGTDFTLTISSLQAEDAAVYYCQQYHRLPLSFGGGTKVEIK gave 0.97, 1.03, 1.15 (mean 1.05; controls 3 of 9).
The variant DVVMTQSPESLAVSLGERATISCKSSQSVLYEWRNKESVFWYQQKAGQPPKLLIYWASTRESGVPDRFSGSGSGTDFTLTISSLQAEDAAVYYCQQYHRLPLSFGGGTKVEIK gave nd, nd, nd (controls 1 of 9).
The variant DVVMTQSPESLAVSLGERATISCKSSQSVLYESSNKMSVAWYQQKAGQPPKLLIYWASTRESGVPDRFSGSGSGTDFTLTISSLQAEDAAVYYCQQYHRLTLSFGGGTKVEIK gave 1.24, 1.22, 1.48 (mean 1.31; controls 1 of 9).
The variant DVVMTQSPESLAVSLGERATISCKSSQSVLCESRNKASVAWYQQKAGQPPKLLIYWQSTRESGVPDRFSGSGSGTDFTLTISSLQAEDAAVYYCQQYHRLPLSFGGGTKVEIK gave 5.09, nd, nd (controls 2 of 9).
The variant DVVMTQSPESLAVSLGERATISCKSSQSVDYESRNKCSVAWYQQKAGQPPKLLIYLASTRESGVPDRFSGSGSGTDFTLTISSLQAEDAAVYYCQQYHRLPLSFGGGTKVEIK gave nd, nd, nd (controls 0 of 9).
The variant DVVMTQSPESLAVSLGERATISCKSSQSVLYESRNKPSVAWYQQKAGQPPKLLIYPASTRESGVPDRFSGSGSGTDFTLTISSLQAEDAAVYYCTQYHRLPLSFGGGTKVEIK gave 5.68, 5.58, 4.43 (mean 5.23; controls 6 of 9).

3 of these entries, quoted again:

| VL | log10 Kd (nM) by replicate | mean, log10 nM | signal with controls |
|---|---|---|---|
| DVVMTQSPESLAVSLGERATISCKSSQNVLYESRNKGSVAWYQQKAGQPPKLLIYWASTRESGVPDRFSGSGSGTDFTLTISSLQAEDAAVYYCQQYHRLPYSFGGGTKVEIK | 3.18, 2.75, 2.83 | 2.92 | 1/9 |
| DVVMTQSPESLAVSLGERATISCKSSQSVLYESLNKDSVAWYQQKAGQPPKLLIYWQSTRESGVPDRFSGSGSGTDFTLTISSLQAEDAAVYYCQQYHRLPLSFGGGTKVEIK | nd, nd, nd | nd | 0/9 |
| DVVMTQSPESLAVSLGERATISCKSSQSVAYESRNKMSVAWYQQKAGQPPKLLIYWASTRESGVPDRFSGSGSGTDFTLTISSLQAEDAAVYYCQQYHRLSLSFGGGTKVEIK | 2.00, 1.70, 2.50 | 2.07 | 1/9 |

Nonspecific signal, from three strains lacking the peptide, appeared in 18% of pairings of library AAYL50, centred on 4.19 (5% of these signals below 2.99); values are not corrected for it. The control count says in how many pairings with the empty strains this scFv gave a signal. In this assay the parent's reference entry averaged 0.65; its copy inside this library read 1.68.

Values reported by Engelhart et al. 2022, doi:10.1038/s41597-022-01779-4 (FLAb copy).